These results are taken from publication PMC8976226 (Mutagenesis, 2022).

Counter-ions that a name gives are not always drawn.

In the series the test system is Salmonella typhimurium, Escherichia coli tester strains. As to the kind of experiment: Bacterial reverse mutation test. Type of series: cell-based.

With `COc1ccc(COC=O)cc1` [anisyl formate], the Ames assay result is, setting by setting: (Salmonella typhimurium strain TA 100 without metabolic activation) “positive”; (overall outcome) “positive”.
